Target: Mu-type opioid receptor (Homo sapiens, UniProt P35372)
Test: Agonist activity at human recombinant mu opioid receptor expressed in CHO cells by [35S]GTP-gamma-S binding assay

Amino acid sequences for entries named in this document (tags omitted).
UniProt P35372, whole entry, looked up: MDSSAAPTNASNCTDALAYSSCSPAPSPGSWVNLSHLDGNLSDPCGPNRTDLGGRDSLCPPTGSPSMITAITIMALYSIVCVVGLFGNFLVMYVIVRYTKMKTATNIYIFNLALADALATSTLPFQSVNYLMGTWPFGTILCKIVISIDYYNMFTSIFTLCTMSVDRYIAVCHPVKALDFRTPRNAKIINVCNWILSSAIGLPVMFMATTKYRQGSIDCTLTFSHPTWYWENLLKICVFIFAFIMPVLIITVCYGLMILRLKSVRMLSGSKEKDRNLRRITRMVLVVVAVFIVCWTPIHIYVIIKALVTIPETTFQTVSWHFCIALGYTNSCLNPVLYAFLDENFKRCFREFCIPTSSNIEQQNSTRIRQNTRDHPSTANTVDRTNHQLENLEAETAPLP

CN(C(=O)Cc1ccc(Cl)c(Cl)c1)C1CCCCC1N1CCCC1 (stereo unspecified)
EC50: 4.84 µM

Source: ChEMBL document CHEMBL1144846, “Herkinorin analogues with differential beta-arrestin-2 interactions” (J Med Chem, 2008)
